In patent publication US6884577B2, “Methods for screening compounds for estrogenic activity” (The Regents of the University of California, priority 1993, dated 2005):

System: ER at classical ERE, ERC1 cells
Test: Estrogenic activity screen: CAT reporter gene linked to a classical ERE in ERC1 cells
Assay type: cell-based, human
Settings: dose response 0-100 μM

Which “concentration of saturation / maximum activity” value does the source give for `Oc1ccc(/C=C/c2ccc(F)cc2)c(Cl)c1` here?
The value was 50 µM.
